{"source": "patent US11576865B2", "about": "“Sustained-release dosage forms of ruxolitinib” (Incyte Corporation, priority 2012, dated 2023)", "origin": "cited, not measured here", "system": "patients with intermediate-2 or high risk myelofibrosis", "settings": "COMFORT-I, ruxolitinib vs placebo, week 24; 95% CI 6.9 to 33.7; cited from earlier work"}
{"smiles": "N#CC[C@H](C1CCCC1)n1cc(-c2ncnc3[nH]ccc23)cn1", "note": "[Ruxolitinib, (3R)-3-cyclopentyl-3-[4-(7H-pyrrolo[2,3-d]pyrimidin-4-yl)pyrazol-1-yl]propanenitrile]", "values": [{"measurement": "odds ratio for reduction of 50% or more in the total symptom score", "result": 15.3}]}
